Measured values: patent US9988429B2, “Glucagon analogues” (Zealand Pharma A/S, priority 2013, dated 2018)

By UniProt entry, the sequences of proteins in these tests, tags left out. Residues count along the entry.
UniProt P47871, 26-477: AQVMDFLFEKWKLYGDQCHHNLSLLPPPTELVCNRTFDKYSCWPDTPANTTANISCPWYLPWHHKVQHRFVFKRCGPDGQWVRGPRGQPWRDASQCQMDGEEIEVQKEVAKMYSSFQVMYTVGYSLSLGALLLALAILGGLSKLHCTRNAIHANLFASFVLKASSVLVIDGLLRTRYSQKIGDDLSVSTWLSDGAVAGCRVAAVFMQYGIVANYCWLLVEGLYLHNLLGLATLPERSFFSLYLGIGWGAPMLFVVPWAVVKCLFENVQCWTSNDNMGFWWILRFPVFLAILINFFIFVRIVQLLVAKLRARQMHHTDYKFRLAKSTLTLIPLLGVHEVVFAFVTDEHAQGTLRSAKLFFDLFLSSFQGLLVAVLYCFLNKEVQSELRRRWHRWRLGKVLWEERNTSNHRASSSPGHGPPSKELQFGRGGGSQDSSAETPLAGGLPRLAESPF
UniProt P30082, 27-485: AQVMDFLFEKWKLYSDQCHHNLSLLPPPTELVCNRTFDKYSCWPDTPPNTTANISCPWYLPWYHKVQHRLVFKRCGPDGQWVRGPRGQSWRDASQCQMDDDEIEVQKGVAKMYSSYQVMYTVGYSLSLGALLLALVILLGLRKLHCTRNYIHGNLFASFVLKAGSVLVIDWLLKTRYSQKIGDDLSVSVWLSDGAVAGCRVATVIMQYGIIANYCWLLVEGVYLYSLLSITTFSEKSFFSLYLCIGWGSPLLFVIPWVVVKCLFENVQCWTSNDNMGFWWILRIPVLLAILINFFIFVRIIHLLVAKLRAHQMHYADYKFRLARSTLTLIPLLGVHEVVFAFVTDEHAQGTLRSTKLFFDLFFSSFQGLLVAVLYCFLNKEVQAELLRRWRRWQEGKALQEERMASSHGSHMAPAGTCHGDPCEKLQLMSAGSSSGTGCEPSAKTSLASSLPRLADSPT

How the values were obtained:
[1] = biological target: human glucagon receptor (Glucagon-R) (human, UniProt P47871 26-477); assay: cell-based or functional assay
[2] = biological target: endogenous glucagon receptor of primary rat hepatocytes (rat, UniProt P30082 27-485); assay: cell-based or functional assay

HAQGTFTSDYSKYLDSKAAHDFVEWLLSA (Lys17 side chain conjugated to hexadecanoyl-isoGlu; C-terminal amide (NH2)) [Compound 1: H-HAQGTFTSDYSKYLDS-K(Hexadecanoyl-isoGlu)-AAHDFVEWLLSA-NH2]
EC50 hGCGR CHO-K1 [nM] (cAMP, AlphaScreen) [1]: 0.23 nM
EC50 [nM] (inhibition of glycogen synthesis rate in primary rat hepatocytes) [2]: 1.3 nM
